## Yeast mating assay 2: variants of the scFv Ab-95

Data: MIT Lincoln Laboratory AlphaSeq set, Engelhart et al. 2022, doi:10.1038/s41597-022-01779-4, as distributed in FLAb.

Binding partner: SARS-CoV-2 spike HR2 peptide, sequence PDVDLGDISGINAS.

Parent: Ab-95, a human scFv built as VH, a 15-residue (Gly4Ser)3 linker, VL. Only the CDRs of the light chain vary.
VH: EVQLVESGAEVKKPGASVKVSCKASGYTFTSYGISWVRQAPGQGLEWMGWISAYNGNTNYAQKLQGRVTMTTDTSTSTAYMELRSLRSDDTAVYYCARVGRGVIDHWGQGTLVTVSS
VL: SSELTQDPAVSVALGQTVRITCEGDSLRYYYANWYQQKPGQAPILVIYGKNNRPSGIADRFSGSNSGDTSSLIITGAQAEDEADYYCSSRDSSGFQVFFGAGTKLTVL

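Phage display of a naive human antibody library on the peptide gave the parent. Library AAYL52 holds single substitutions and randomly drawn double and triple substitutions in the CDRs. The scFvs were displayed on barcoded MATa yeast, the peptide on MATalpha yeast. Mating (16 h, 30 °C) was followed by selection of diploids and sequencing of their barcodes. Read counts were normalised to the haploid input and turned into Kd by a linear fit to BCL2-family pairs of known affinity, for each replicate. Mating was done three times.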

Each variant is given by its three light chain CDRs, as the data file delimits them; those of the parent are EGDSLRYYYAN, GKNNRPS, SSRDSSGFQVF. Scale: log10 of Kd in nM, estimated from mating counts; low values are strong binders. Averages over replicates are reported, and they cover detected replicates only. "ND" marks a missing value. The strain was present, yet no cells mated with the target were sequenced in that replicate, which points to weak or no binding. Background: pairings of library AAYL52 with three empty control strains gave a value in 28% of cases (median 3.91, 5th percentile 2.90). Values in that range, when seen in few replicates, are hard to tell from nonspecific mating. For each scFv, signals with the empty controls are counted beside the result, with their mean in brackets.

CDR-L1,CDR-L2,CDR-L3,log10 Kd (nM) by replicate,mean log10 Kd (nM),empty controls
EGDSLRYYNAN,GKNNRQS,SSRDSSFFQVF,3.47 4.30 4.03,3.93,4 of 9 (3.85)
CGDSLRYYYAN,GKMDRPS,SSRDSSGFQVF,3.63 3.56 3.91,3.70,3 of 9 (4.73)
EGDSLRYYYAN,IKNNRPS,SSRDSQGFYVF,ND ND ND,ND,0 of 9
EGDSLRYYYAN,GKPNRPS,SSRSSSGFIVF,3.89 ND ND,3.89,5 of 9 (4.10)
EGDSLRWYYAN,GKNNRPS,VSRDSSGFQVI,ND ND 4.06,4.06,3 of 9 (3.74)
EGDSLRYDYAN,GKNNRYS,SSRDSSGFSVF,2.68 2.73 2.11,2.50,2 of 9 (3.44)
EGDSLRYLYAN,NKNNRPS,SSRDSSGFQWF,4.43 3.10 3.46,3.66,5 of 9 (4.03)
RGDSLRYYYAN,GKNNRPS,SSRDSSQFVVF,ND ND ND,ND,2 of 9 (3.85)
EGTSLEYYYRN,GKNNRPS,SSRDSSGFQVF,4.78 ND 4.25,4.51,2 of 9 (3.43)
EGDSLRYYYAN,GKTNRPS,SNRDSSGFQVW,3.66 ND ND,3.66,2 of 9 (3.50)
EGDSLCYYYAN,GENNRPS,SSRDSSSFQVF,3.70 2.71 3.73,3.38,4 of 9 (3.86)
EGDSLIYYYIN,GKNNRPS,SSRLSSGFQVF,ND ND ND,ND,0 of 9
EGDSLRYYYAN,GRNNRDS,SSRDSSTFQVF,ND ND 3.44,3.44,1 of 9 (3.51)
EGDSLRYYYAN,GKNNKPS,SSRDSDGFGVF,2.65 2.37 2.15,2.39,2 of 9 (3.43)
EGDSHRYYYAN,GKNNRPS,SSDYSSGFQVF,1.60 1.67 0.91,1.40,7 of 9 (4.28)
EGDSLRYYYAN,DKNHRPS,SHRDSSGFQVF,ND ND 2.88,2.88,0 of 9
EGDSLRYGYAN,GKNNRTS,SSRDSSIFQVF,2.73 2.36 1.93,2.34,3 of 9 (4.21)
EGDSLRCYYAN,GKNARPS,SSRDSMGFQVF,4.44 4.98 ND,4.71,5 of 9 (3.35)
EGDSHRYYYAN,EKNNRPS,SSRDSSGFQPF,4.05 ND ND,4.05,3 of 9 (3.74)
EGDSLRYYYQN,GANNRPS,SSRDSSGFQVG,ND ND ND,ND,2 of 9 (3.62)
YGDSLRYYYAG,GKNNRPS,SSRDSSGFQVW,4.76 3.82 ND,4.29,3 of 9 (4.31)
EGDSLRYYYAN,GKNNRPS,SSRDSCGLQDF,3.86 ND ND,3.86,2 of 9 (3.30)
EGDSLRYYYAD,GKNNRPS,SSRDNSGEQVF,ND ND ND,ND,4 of 9 (3.55)
EGDSCRYYYAN,GKNNRPS,SSRDSSGWQEF,ND ND ND,ND,2 of 9 (2.52)
EGDSLRYYYAS,GKWNRQS,SSRDSSGFQVF,3.91 ND 3.65,3.78,2 of 9 (3.70)
EGDPLWYYYAE,GKNNRPS,SSRDSSGFQVF,3.22 ND ND,3.22,1 of 9 (3.20)
EGDSLRYYYAN,GKNNRES,FSRDSSHFQVF,3.93 4.53 ND,4.23,3 of 9 (4.32)
EHDSLRYYYAN,GKNNEPS,SSRDSSGFQMF,ND ND ND,ND,3 of 9 (3.78)
EGPSLRYYYAN,GKNNGPS,SSRDSEGFQVF,3.37 3.00 2.62,3.00,2 of 9 (3.40)
EGDSLKYYYAN,GKNNRPS,VSRDSSGCQVF,2.57 2.14 1.90,2.20,5 of 9 (4.25)
EGDSQRYYYAN,GKNNRPS,SFDDSSGFQVF,3.76 ND ND,3.76,3 of 9 (3.76)
EDDDLRYYYSN,GKNNRPS,SSRDSSGFQVF,ND ND ND,ND,1 of 9 (4.44)
EGDSLRYYYTN,GKENRPS,SMRDSSGFQVF,3.03 4.34 ND,3.68,4 of 9 (3.98)
EGDSLRSYYAN,GKNNRPS,SSRDSYGFQVF,ND ND 3.00,3.00,2 of 9 (3.42)
EGDYLRYYKAN,GKNNRPS,SSRDASGFQVF,ND ND ND,ND,0 of 9
EGDSLIYYYAN,GKNNRPS,SSRDSSGFQVV,3.74 3.18 3.35,3.42,1 of 9 (4.01)
EGDSLRYYEAN,GKNNRLS,SSRDMSGFQVF,2.05 1.87 1.60,1.84,3 of 9 (4.38)
EGDSLRCYYWN,GKNNRPS,SSRDSSGFQVV,3.58 5.06 ND,4.32,6 of 9 (3.51)
EGDSLRYYYAN,GLNNRPS,SSRGSSGFQVR,ND ND ND,ND,1 of 9 (4.89)
EGDSLPYYYKN,GKNNRPS,SERDSSGFQVF,2.47 2.40 1.52,2.13,4 of 9 (3.48)
EGDQLRYYYAN,GKNGRPS,SSRDPSGFQVF,4.58 ND 3.00,3.79,2 of 9 (3.73)
EGDSLRYYYAF,GKNNRPS,SSRDSSGFQVF,3.33 3.37 ND,3.35,3 of 9 (3.89)
EGDSLREYYAE,GKSNRPS,SSRDSSGFQVF,4.23 4.75 ND,4.49,4 of 9 (2.76)
DGDSLRYYYAN,GKNNRPS,SSHDSSCFQVF,3.05 2.46 3.00,2.84,0 of 9
EGDCLRYYYAN,GKNNRPS,SSRCSSGFIVF,ND 5.25 ND,5.25,4 of 9 (3.67)
EGDSRRYYYAN,GFNNRPS,SNRDSSGFQVF,5.16 4.46 ND,4.81,4 of 9 (3.86)
ELDSYRYYYWN,GKNNRPS,SSRDSSGFQVF,2.33 2.19 2.22,2.25,2 of 9 (3.12)
EGDSVRYYYAN,GKNNRYS,SSRDSSGFQVH,ND ND 3.93,3.93,1 of 9 (3.65)
EGDSLEYYYAN,GKNNRPS,SSRDFSGFQVF,3.07 2.70 3.04,2.94,0 of 9
EGDSLRYFKYN,GKNNRPS,SSRDSSGFQVF,5.13 ND ND,5.13,1 of 9 (2.86)

Picked from the list: the 7 lowest averages where every replicate gave a value.

CDR-L1,CDR-L2,CDR-L3,log10 Kd (nM) by replicate,mean log10 Kd (nM),empty controls
EGDSHRYYYAN,GKNNRPS,SSDYSSGFQVF,1.60 1.67 0.91,1.40,7 of 9 (4.28)
EGDSLRYYEAN,GKNNRLS,SSRDMSGFQVF,2.05 1.87 1.60,1.84,3 of 9 (4.38)
EGDSLPYYYKN,GKNNRPS,SERDSSGFQVF,2.47 2.40 1.52,2.13,4 of 9 (3.48)
EGDSLKYYYAN,GKNNRPS,VSRDSSGCQVF,2.57 2.14 1.90,2.20,5 of 9 (4.25)
ELDSYRYYYWN,GKNNRPS,SSRDSSGFQVF,2.33 2.19 2.22,2.25,2 of 9 (3.12)
EGDSLRYGYAN,GKNNRTS,SSRDSSIFQVF,2.73 2.36 1.93,2.34,3 of 9 (4.21)
EGDSLRYYYAN,GKNNKPS,SSRDSDGFGVF,2.65 2.37 2.15,2.39,2 of 9 (3.43)

In this assay the parent's reference entry averaged 2.31; its copy inside this library read 2.25.